Laboratory results taken from patent EP4831169A1, “NOVEL COMPOUND USED AS CBP/P300 INHIBITOR, AND PHARMACEUTICAL COMPOSITION FOR PREVENTING OR TREATING CANCER, INFLAMMATORY DISORDERS, OR AUTOIMMUNE DISEASES COMPRISING SAME AS ACTIVE INGREDIENT” (dated 2026).

Chains of the proteins cited; added tags and fusions are not shown. Residues count along the entry.
UniProt Q92793, 1085-1192 limits assumed: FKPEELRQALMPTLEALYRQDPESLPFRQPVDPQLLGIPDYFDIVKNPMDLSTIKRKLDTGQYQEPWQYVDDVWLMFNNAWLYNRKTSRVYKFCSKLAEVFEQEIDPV

How the values were obtained:
BRD4 (BD1) protein = BRD4 (BD1) protein (Homo sapiens, UniProt O60885); experiment: BRD4 bromodomain TR-FRET inhibitory activity assay; conditions: read-out: BRD4 (BD1) IC50, Table 4
CBP BRD protein = CBP BRD protein (Homo sapiens, UniProt Q92793); experiment: CBP bromodomain TR-FRET inhibitory activity assay; conditions: read-out: CBP BRD IC50, Table 3

Compound	IC50 (BRD4 (BD1) protein) [nM]	IC50 (CBP BRD protein) [nM]
Cc1ccc2c(-c3nc4cc(-c5cnn(C)c5)c(C=O)cc4n3-c3ccc4c(c3)n(C)c(=O)n4C)c[nH]c2c1	500 to 5000	< 500
C#CC(C)(C)c1nc2cc(-c3cnn(C)c3)c(C(F)(F)F)cc2n1-c1cc(N2CCOCC2)c2c(c1)n(C)c(=O)n2C	> 5000	< 500
CC(=O)Oc1cc2c(cc1-c1cnn(C)c1)nc(C(C)(C)C)n2-c1cc(N2CC(C)(O)C2)c2c(c1)n(C)c(=O)n2C	> 5000	< 500
CNc1ccc(-c2cc3nc(-c4cncn4C)n(-c4cc(C5CCOCC5)c5c(c4)n(C)c(=O)n5C)c3cc2F)cc1	> 5000	500 to 5000
CC(C)Oc1cc(-n2c(-c3cncn3C)nc3cc(-c4cnn(C)c4)c(C#N)cc32)cc2c1n(C)c(=O)n2C	> 5000	< 500
CC(C)Oc1cc(-n2c(-c3cccnc3)nc3cc(-c4cnn(C)c4)c(F)cc32)cc2c1n(C)c(=O)n2C	> 5000	< 500
COc1cc(-c2cc3nc(C(C)(C)C)n(-c4cc(NC(C)C)c5c(c4)n(C)c(=O)n5C)c3cc2F)ccn1	> 5000	500 to 5000
Cc1ncc(-c2cc3nc(-c4cncn4C)n(-c4cc(NC(C)C)c5c(c4)n(C)c(=O)n5C)c3cc2F)s1	> 5000	< 500
Cn1cc(-c2cc3nc(C(C)(C)C)n(-c4cc(N5CCC(O)C5)c5c(c4)n(C)c(=O)n5C)c3cc2F)cn1 (stereo not shown)	> 5000	< 500
Cc1ccc2c(-c3nc4cc(-c5cnn(C)c5)c(C(C)(C)O)cc4n3-c3ccc4c(c3)n(C)c(=O)n4C)c[nH]c2c1	500 to 5000	< 500
Cn1c(=O)n(C)c2c(C3CCOCC3)cc(-n3c(C(F)(F)F)nc4cc(C5=CCOCC5)c(F)cc43)cc21	> 5000	> 5000
CC(C)Nc1cc(-n2c(-c3cncn3C)nc3cc(-c4cnn(C)c4)c(F)cc32)cc2c1n(C)c(=O)n2C	500 to 5000	< 500
Cn1cc(-c2cc3nc(-c4cncn4C)n(-c4cc(N5CCC(=O)CC5)c5c(c4)n(C)c(=O)n5C)c3cc2C(F)F)cn1	500 to 5000	< 500
COC1(C)CN(c2cc(-n3c(-c4cncn4C)nc4cc(-c5cnn(C)c5)c(C(F)(F)F)cc43)cc3c2n(C)c(=O)n3C)C1	500 to 5000	< 500
CC(C)c1cc(-n2c(C3(C(F)(F)F)CC3)nc3cc(-c4cnn(C)c4)c(F)cc32)cc2c1n(C)c(=O)n2C	> 5000	> 5000
Cn1cc(-c2cc3nc(-c4cncn4C)n(-c4cc(N5CC6C[C@H]5CO6)c5c(c4)n(C)c(=O)n5C)c3cc2C(F)F)cn1	< 500	< 500
Cc1sccc1-c1nc2cc(-c3cnn(C)c3)c(F)cc2n1-c1cc(C(C)C)c2c(c1)n(C)c(=O)n2C	> 5000	< 500
Cn1cc(-c2cc3nc(C(C)(C)C)n(-c4cc(O)c5c(c4)n(C)c(=O)n5C)c3cc2C(F)F)cn1	> 5000	< 500
CC(C)Oc1cc(-n2c(C(C)(C)C)nc3cc(-c4cnn(C)c4)c(C(F)(F)F)cc32)cc2c1n(C)c(=O)n2C	> 5000	< 500
Cc1nnc(-c2cc3nc(C(C)(C)C)n(-c4cc(N5CCOCC5)c5c(c4)n(C)c(=O)n5C)c3cc2F)[nH]1	> 5000	< 500
Cn1cc(-c2cc3nc(-c4cncn4C)n(-c4cc(N5CCOCC5)c5c(c4)n(C)c(=O)n5C)c3cc2C(F)F)cn1	> 5000	< 500
CCn1c(=O)n(C)c2cc(-n3c(-c4cncn4C)nc4cc(-c5cnn(C)c5)c(F)cc43)ccc21	> 5000	< 500
CC(C)c1cc(-n2c(C3(C)CC3)nc3cc(-c4cnn(C)c4)c(F)cc32)cc2c1n(C)c(=O)n2C	> 5000	500 to 5000
Cc1sccc1-c1nc2cc(C3=CCOCC3)c(F)cc2n1-c1cc(C2CCOCC2)c2c(c1)n(C)c(=O)n2C	> 5000	500 to 5000
Cc1ncc(-c2cc3nc(-c4cncn4C)n(-c4cc(N5CCSCC5)c5c(c4)n(C)c(=O)n5C)c3cc2C(F)F)s1	> 5000	< 500
CNC(=O)c1ccc(-c2cc3nc(-c4cncn4C)n(-c4cc(N5CCOCC5)c5c(c4)n(C)c(=O)n5C)c3cc2F)cc1F	500 to 5000	< 500
Cn1cc(-c2cc3nc(-c4cncn4C)n(-c4cc(NCC5CCOCC5)c5c(c4)n(C)c(=O)n5C)c3cc2F)cn1	> 5000	< 500

Compound	IC50 (BRD4 (BD1) protein) [nM]	IC50 (CBP BRD protein) [nM]
Cn1cc(-c2cc3nc(C(C)(C)C)n(-c4cc(C5CCOCC5)c5c(c4)n(C)c(=O)n5C)c3cc2C(F)F)cn1	> 5000	< 500
COC1(C)CN(c2cc(-n3c(C(C)(C)C)nc4cc(-c5cnn(C)c5)c(C#N)cc43)cc3c2n(C)c(=O)n3C)C1	> 5000	< 500
Cc1ccc2c(-c3nc4cc(-c5cnn(C)c5)c(C#N)cc4n3-c3ccc4c(c3)n(C)c(=O)n4C)c[nH]c2c1	> 5000	500 to 5000
CC(=O)N1CCC(Oc2cc(-n3c(C(C)(C)C)nc4cc(-c5cnn(C)c5)c(F)cc43)cc3c2n(C)c(=O)n3C)CC1	> 5000	< 500
Cn1cc(-c2cc3nc(-c4cncn4C)n(-c4ccc5c(c4)n(C)c(=O)n5CCO)c3cc2F)cn1	> 5000	500 to 5000
CN(C)c1ccc(Nc2cc(-n3c(-c4cncn4C)nc4cc(-c5cnn(C)c5)c(F)cc43)cc3c2n(C)c(=O)n3C)cc1	> 5000	< 500
Cn1cc(-c2cc3nc(-c4cncn4C)n(-c4cc(N5CCC(O)C5)c5c(c4)n(C)c(=O)n5C)c3cc2F)cn1 (stereo not shown)	500 to 5000	< 500
Cn1cc(-c2cc3nc(-c4cncn4C)n(-c4cc(NCC5CC5)c5c(c4)n(C)c(=O)n5C)c3cc2F)cn1	> 5000	< 500
COc1cc2c(cc1-c1cnn(C)c1)nc(C(C)(C)C)n2-c1cc(N2CCC(C)(O)CC2)c2c(c1)n(C)c(=O)n2C	500 to 5000	< 500
C#Cc1cc(-n2c(-c3cncn3C)nc3cc(-c4cnn(C)c4)c(F)cc32)cc2c1n(C)c(=O)n2C	> 5000	< 500
CNC(=O)c1ccc(-c2cc3nc(C(C)(C)C)n(-c4cc(N5CC(C)(O)C5)c5c(c4)n(C)c(=O)n5C)c3cc2C(F)F)cc1F	> 5000	< 500
Cn1cc(-c2cc3nc(-c4cncn4C)n(-c4cc(N5CCSCC5)c5c(c4)n(C)c(=O)n5C)c3cc2C(F)F)cn1	> 5000	< 500
Cn1cc(-c2cc3nc(C(C)(C)C)n(-c4cc(NCC(C)(O)CO)c5c(c4)n(C)c(=O)n5C)c3cc2N)cn1 (stereo not shown)	> 5000	< 500
Cc1ncc(-c2cc3nc(-c4cncn4C)n(-c4cc(OCCN5CCOCC5)c5c(c4)n(C)c(=O)n5C)c3cc2C(F)F)s1	500 to 5000	< 500
2-tert-butyl-3-[7-(3,3-difluoroazetidin-1-yl)-1,3-dimethyl-2-oxo-benzimidazol-5-yl]-6-(1-methylpyrazol-4-yl)benzimidazole-5-carbonitrile	> 5000	< 500
Cn1cc(-c2cc3nc(-c4cncn4C)n(-c4cc(N5CC(C)(O)C5)c5c(c4)n(C)c(=O)n5C)c3cc2C#N)cn1	500 to 5000	< 500
Cc1ncc(-c2cc3nc(C(C)(C)C)n(-c4cc(N5CCOCC5)c5c(c4)n(C)c(=O)n5C)c3cc2C(F)F)s1	> 5000	< 500
CC(C)c1cc(-n2c(-c3cncn3C)nc3cc(-c4cnn(C)c4)c(F)cc32)cc2c1n(C)c(=O)n2C	> 5000	< 500
CN(C)c1ccc(-c2cc3nc(-c4cncn4C)n(-c4cc(C5CCOCC5)c5c(c4)n(C)c(=O)n5C)c3cc2F)cc1	> 5000	< 500
Cn1c(=O)n(C)c2c(N3CC(C)(O)C3)cc(-n3c(C(C)(C)C)nc4cc(-c5ccc(N)cc5)c(C(F)F)cc43)cc21	> 5000	< 500
CCCNc1cc(-n2c(-c3cncn3C)nc3cc(-c4cnn(C)c4)c(F)cc32)cc2c1n(C)c(=O)n2C	500 to 5000	< 500
COC(=O)c1cc2c(cc1-c1cnn(C)c1)nc(C(C)(C)C)n2-c1cc(N2CCOCC2)c2c(c1)n(C)c(=O)n2C	500 to 5000	< 500
CC(=O)N1CCC(c2cc(-n3c(-c4cncn4C)nc4cc(-c5cnn(C)c5)c(F)cc43)cc3c2n(C)c(=O)n3C)CC1	> 5000	< 500
Cn1cc(-c2cc3nc(C(C)(C)C)n(-c4cc(C5CCC(=O)CC5)c5c(c4)n(C)c(=O)n5C)c3cc2C(F)F)cn1	> 5000	< 500
Cn1cc(-c2cc3nc(-c4cncn4C)n(-c4cc(NCCC(F)(F)F)c5c(c4)n(C)c(=O)n5C)c3cc2F)cn1	> 5000	< 500
Cc1ncc(-c2cc3nc(-c4cncn4C)n(-c4cc(N5CCOCC5)c5c(c4)n(C)c(=O)n5C)c3cc2F)s1	> 5000	< 500
